In this test the target is T1, Trifunctional purine biosynthetic protein adenosine-3 (Mus musculus, UniProt Q64737).
T1 sequence (Q64737 whole entry): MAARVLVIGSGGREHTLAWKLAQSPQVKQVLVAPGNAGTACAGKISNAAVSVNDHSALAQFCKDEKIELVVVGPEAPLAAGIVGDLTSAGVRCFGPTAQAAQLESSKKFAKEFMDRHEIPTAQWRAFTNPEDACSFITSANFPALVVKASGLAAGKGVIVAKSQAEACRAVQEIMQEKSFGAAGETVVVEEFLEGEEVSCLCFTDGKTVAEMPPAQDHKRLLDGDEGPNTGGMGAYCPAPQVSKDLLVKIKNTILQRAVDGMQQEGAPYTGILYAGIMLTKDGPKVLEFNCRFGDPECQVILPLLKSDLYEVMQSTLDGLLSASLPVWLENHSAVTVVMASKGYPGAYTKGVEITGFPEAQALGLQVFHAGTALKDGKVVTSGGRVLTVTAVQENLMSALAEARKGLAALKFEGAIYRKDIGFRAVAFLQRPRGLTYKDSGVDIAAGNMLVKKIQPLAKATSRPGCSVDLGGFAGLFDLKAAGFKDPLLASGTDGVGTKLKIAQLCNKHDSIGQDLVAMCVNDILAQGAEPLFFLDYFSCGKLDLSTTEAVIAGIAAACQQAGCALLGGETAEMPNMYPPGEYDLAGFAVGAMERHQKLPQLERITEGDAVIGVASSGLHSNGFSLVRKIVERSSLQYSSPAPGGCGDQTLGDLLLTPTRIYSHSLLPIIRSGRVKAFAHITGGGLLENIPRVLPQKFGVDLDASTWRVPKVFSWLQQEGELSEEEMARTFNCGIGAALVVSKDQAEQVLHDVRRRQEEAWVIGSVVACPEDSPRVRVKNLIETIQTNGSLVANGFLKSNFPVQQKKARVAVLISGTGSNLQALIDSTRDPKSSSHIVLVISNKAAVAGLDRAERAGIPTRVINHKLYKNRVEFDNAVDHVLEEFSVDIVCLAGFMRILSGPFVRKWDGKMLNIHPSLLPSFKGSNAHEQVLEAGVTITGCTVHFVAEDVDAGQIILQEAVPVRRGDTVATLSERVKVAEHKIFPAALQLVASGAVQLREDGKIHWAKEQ
Put plainly: Inhibition of GAR transformylase from mammalian L1210 cells. It counts as cell-based.

Molecules are shown by their SMILES.

For the compound `CN(Cc1cnc2nc(N)nc(N)c2n1)c1ccc(C(=O)N[C@@H](CCC(=O)O)C(=O)O)cc1` [METHOTREXATE], the IC50 was over 20 µM.

A word on the IC50: it is the midpoint of a concentration-inhibition curve. A low value points to greater potency in that assay.

The values are drawn from ChEMBL document CHEMBL1124008, “Synthesis and antifolate activity of 5-methyl-5,10-dideaza analogues of aminopterin and folic acid and an alternative synthesis of 5,10-dideazatetrahydrofolic acid, a potent inhibitor of glycinamide ribonucleotide formyltransferase” (J Med Chem, 1988).
